Measurements published in PubChem BioAssay (Tox21).
Several values for one entry are separate records, joined by “and”; a condition that tells them apart may be missing. Identical values can stand only once. The list shows a part of the results, in another mix than the full data. Records with an inconclusive call do not appear. Activity calls are given as the source filed them. Calls follow the shape of the dose curve; as a rule, active = well fitted cell-killing curve with a large enough effect in the repeat runs; inconclusive = weak or mixed curves, or effect the other way; inactive = flat fitted curve, though single readings scatter.

experiment: cAMP Responsive Elements (CRE) small molecule antagonists, cell-based qHTS assay: qHTS cell viability counter screen (AID 2060913); details: CRE-bla HEK293T viability, CellTiter-Glo luminescence, 5 h; at 92.4 µM (top of the series) unless noted; also: nearly all actives have a fitted effect of over 40% in size
Procedure, shortened: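 Viability of NKH477-stimulated (0.25 uM final) CRE-bla HEK293T cells is measured by CellTiter-Glo luminescence following 3 hrs compound exposure at 37 C.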
% is scaled to controls: 0 for no effect and ±100 for the full control effect.

SMILES | viability change, negative = cytotoxic
O=[N+]([O-])c1cccc([N+](=O)[O-])c1 | inactive: 0.408%
[NH4+].[O-][Cl+3]([O-])([O-])[O-] | inactive: -0.845% and inactive: 0.338%
Cc1c([N+](=O)[O-])cccc1[N+](=O)[O-] | inactive: -4.51% and inactive: 2.11%
COc1ccc([N+](=O)[O-])cc1[N+](=O)[O-] | inactive: 1.72%
CP(=O)(O)OCCC[Si](O)(O)O | inactive: 0.105%
